Here are results for 7 molecules from US20240279332A1 (Amgen, published 2024).

The chains behind the UniProt entries cited, without tags or fusion partners. Residues count along the entry.
UniProt Q9NP99, 21-234 limits assumed: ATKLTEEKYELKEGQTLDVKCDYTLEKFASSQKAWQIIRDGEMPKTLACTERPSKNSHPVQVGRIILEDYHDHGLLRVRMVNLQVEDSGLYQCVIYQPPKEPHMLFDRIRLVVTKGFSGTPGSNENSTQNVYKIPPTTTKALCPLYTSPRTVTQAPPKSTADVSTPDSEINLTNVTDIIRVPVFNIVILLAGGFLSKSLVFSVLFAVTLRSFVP

The experiment addresses human TREM-1 (TrigGering Receptor Expressed on Myeloid cells 1) on cells (human, UniProt Q9NP99 21-234). Description: cell-based or functional assay.

Residue numbers refer to the chain shown, from its start.

B1: 57C10 Fab (Fab, V domains shown)
VH: QVQLVQSGAEVKKPGASVKVSCKASGYTFTRYDINWVRQATGQGLEWMGWLNPNSGNTGQTQKFRGRVTMTRNTSINTAYMELSSLRSEDTAVYYCARGGYTSAWRWYFDLWGRGTLVTVSS
VL: DIQMTQSPSSLSASVGDRVTITCQASQDINNHLNWYQQKPGKAPKLLIYDVSNLETGVPSSFSGSGCGTDFTFTISSLQPEDIATYFCQQYDKLPLTFGGGTKVEIE
As for B1, the “Fab IC50-pSYK Assay (Trial 1), human TREM-1/Dap12-HEK293, PGLYRP1/PGN” value is 273 pM and the “Fab IC50-pSYK Assay (Trial 2), human TREM-1/Dap12-HEK293, PGLYRP1/PGN” value came to 583 pM.

B2: 34D1 Fab (Fab, V domains shown)
VH: B1 VH with L51M, T58S, Q60S, T61V, N77H, T78I, A104S
VL: DIQMTQSPSSLSASVGDRVNITCQASQDIRKHLNWYQQKPGKAPNLLIYDAANLETGVPSRFSGSGSGTAFTFTISSLQPEDIATYYCQHYANLPITFGQGTRLEIK
With B2, the “Fab IC50-pSYK Assay (Trial 1), human TREM-1/Dap12-HEK293, PGLYRP1/PGN” value came to 314 pM and the “Fab IC50-pSYK Assay (Trial 2), human TREM-1/Dap12-HEK293, PGLYRP1/PGN” value is 309 pM.

B3: 61B12 Fab (Fab, V domains shown)
VH: QVQLVQSGAEVTKPGASVKVSCKASGYTFTRYDINWVRQATGQGLEWMGWMNPNSGNSGSVQKFRGRVTMTRNTSITTVYMELSSLRSDDTAVYYCARGGISSSWHWAFDIWGQGTMVTVSS
VL: B1 VL with D50G, V51A, S52Y, N53T, S61R, C67S, F87Y, E107K
Turning to B3, the “Fab IC50-pSYK Assay (Trial 1), human TREM-1/Dap12-HEK293, PGLYRP1/PGN” value worked out at 112 pM and the “Fab IC50-pSYK Assay (Trial 2), human TREM-1/Dap12-HEK293, PGLYRP1/PGN” value was 569 pM.

B4: 63F8 Fab (Fab, V domains shown)
VH: QVQLVQSGAEVKKPGASVKVSCKASGYTFTSYDINWVRQATGQGLEWMGRMNPKSGNAGYVQNFRGRVTMTRNTSISTAYMELSSLRSEDTAVYYCARGGRTSIWSFVFDYWGQGTLVTVSS
VL: B1 VL with N30S, N31K, V51T, S61R, C67S, F87N, E107K
On to B4, for which the “Fab IC50-pSYK Assay (Trial 1), human TREM-1/Dap12-HEK293, PGLYRP1/PGN” value is 45.2 pM and the “Fab IC50-pSYK Assay (Trial 2), human TREM-1/Dap12-HEK293, PGLYRP1/PGN” value was 38 pM.

B5: 61G5 Fab (Fab, V domains shown)
VH: QVQLVQSGAEVKKPGASVKVSCKASGYTFTSYDINWVRQATGQGLEWMGWMNPNSGNSGSVKKFRDRVTMTRNTSISTAYMELSSLRSEDTAVYYCVRLIGYSSAWKWSFQHWGQGTLVTVSS
VL: B2 VL with N20T, Q27R, R30S, H32Y, N45K, L47Q, A52S, A70D, A92D, L94I
Take B5: the “Fab IC50-pSYK Assay (Trial 1), human TREM-1/Dap12-HEK293, PGLYRP1/PGN” value was found to be 387 pM and the “Fab IC50-pSYK Assay (Trial 2), human TREM-1/Dap12-HEK293, PGLYRP1/PGN” value turned out to be 186 pM.

B6: 30H2 Fab (Fab, V domains shown)
VH: EVQVLESGGGLVQPGESLRLSCTASGFTFNAYAMSWVRQAPGKGLEWVSTISGSGSTTYYADSVKGRFTISRDNSKNTLDLQMNSLRAADTAVYYCAKVAGSNFFFDHWGQGTLVTVSS
VL: EIVMTQSPATLSVSPGERATLSCRASQSINSNLAWYQQKPGQAPRLLIYGAYTRATGIPDRFSGSGSGTEFTLTISSLQSEDFAVYYCQEFIMWPPWTFGLGTQVEIK
Turning to B6, the “Fab IC50-pSYK Assay (Trial 1), human TREM-1/Dap12-HEK293, PGLYRP1/PGN” value is 467 pM and the “Fab IC50-pSYK Assay (Trial 2), human TREM-1/Dap12-HEK293, PGLYRP1/PGN” value came to 374 pM.

B7: 64D7 Fab (Fab, V domains shown)
VH: QVQLVQSGAEVKKPGASVKVSCKASGYTFTSYDINWVRQATGQGLEWMGWMNPNRGNTGYVKKFQGRVTMTRNTSISTAYMELSSLRSEDTAVYYCARRRAVYRSSWEWYFDLWGRGTLVTVSS
VL: DTQMTQSPSSLSASEGDRVTITCQASQDIFNDLNWYQEKPGKAPKLLIYHASNLETGVPSRFSGSGSGTDYTFTISSLQPEDIATYYCQQYGNLPLTFGGGTKVEIK
For the molecule B7, the “Fab IC50-pSYK Assay (Trial 1), human TREM-1/Dap12-HEK293, PGLYRP1/PGN” value worked out at 229 pM and the “Fab IC50-pSYK Assay (Trial 2), human TREM-1/Dap12-HEK293, PGLYRP1/PGN” value came out at 70 pM.
